The values that follow come from article PMC4459640.

Substrate in this series: CN1CC[C@]23c4c5ccc(O)c4O[C@H]2[C@@H](O)C=C[C@H]3[C@H]1C5
The experiment in a line: not read. Conditions: other: Michaelis-Menten, pH 7.5.

B1: human SULT1A3 (Homo sapiens) (protein)
chain: MELIQDTSRPPLEYVKGVPLIKYFAEALGPLQSFQARPDDLLINTYPKSGTTWVSQILDMIYQGGDLEKCNRAPIYVRVPFLEVNDPGEPSGLETLKDTPPPRLIKSHLPLALLPQTLLDQKVKVVYVARNPKDVAVSYYHFHRMEKAHPEPGTWDSFLEKFMAGEVSYGSWYQHVQEWWELSRTHPVLYLFYEDMKENPKREIQKILEFVGRSLPEETMDFMVQHTSFKEMKKNPMTNYTTVPQELMDHSISPFMRKGMAGDWKTTFTVAQNERFDADYAEKMAGCSLSFRSEL
Take B1: the Vmax (commonly the rate approached at saturating substrate) was over 0.003 µmol/min/mg.
